Experimental data taken from patent US10716827B2 (priority 2015, dated 2020).

Chains of the proteins cited; added tags and fusions are not shown. Residues count along the entry.
UniProt P27352, 19-417: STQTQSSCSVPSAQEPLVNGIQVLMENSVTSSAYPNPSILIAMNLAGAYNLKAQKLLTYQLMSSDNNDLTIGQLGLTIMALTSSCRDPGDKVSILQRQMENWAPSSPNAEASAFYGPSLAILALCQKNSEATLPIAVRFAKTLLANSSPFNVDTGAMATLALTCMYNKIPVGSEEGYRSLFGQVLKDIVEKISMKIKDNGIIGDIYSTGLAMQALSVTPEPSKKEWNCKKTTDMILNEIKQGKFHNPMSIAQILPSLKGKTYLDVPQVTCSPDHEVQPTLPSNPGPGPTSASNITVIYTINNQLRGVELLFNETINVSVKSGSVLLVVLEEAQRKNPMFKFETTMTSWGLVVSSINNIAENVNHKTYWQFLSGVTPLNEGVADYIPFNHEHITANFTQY

Columns and labels:
[1] = background statement; cited from earlier work
Intrinsic Factor (IF) [2] = biological target: T1, Intrinsic Factor (IF) (Homo sapiens, UniProt P27352); settings: read-out: IF binding; radiometric chase assay, 57Co-labelled B12; IF produced in Arabidopsis, apo-form
Intrinsic Factor (IF) [3] = biological target: T1, Intrinsic Factor (IF); settings: read-out: Kd, IF binds B12; background statement; cited from earlier work

Substance: GLP-1
- half-life [1]: < 2 min

Substance: cyanocobalamin [B12]
- Kd (Intrinsic Factor (IF) [2]): 0.12 nM
- Kd (Intrinsic Factor (IF) [3]): ~0.001 nM

Like-named read-outs stand apart in the source and are kept apart here.
